Measured values from US20230227547A1, “ANTIBODY-PAYLOAD CONJUGATES WITH ENHANCED DELIVERY DOMAIN AND USES THEREOF” (IPROGEN BIOTECH INC., priority 2019, published 2023).

How the values were obtained:
Format in all cases: cell-based, human
BT474 cells = assay: Delivery assay, Z-RFP fluorescence by FACS, BT474; settings: increasing antibody concentrations (FIG. 9)
RT4V6 cells = assay: Delivery assay, Z-RFP fluorescence by FACS, RT4V6; settings: 100 nM, 4 hours (FIG. 4) or 4-100 nM, 3 hours (FIG. 28)
OVCAR3 cells = assay: Delivery assay, Z-RFP fluorescence by FACS, OVCAR3; settings: 100 nM antibody + 100 nM Z-RFP, 4 hours (FIG. 7)

In the case of Trastuzumab [anti-HER2 mAb], the “effect of LL37 conjugation on delivery of the mAb (in words)” value (BT474 cells) is reported as “greatly amplifies the delivery”, the “delivery (in words)” value (RT4V6 cells) is reported as “poorly delivered” and the “delivery efficiency (in words)” value (OVCAR3 cells) is reported as “delivery efficiency is low”.
